Results taken from patent US20030088057A1, “PEPTIDE SUBSTRATES PHOSPHORYLATED BY P21-ACTIVAGED PROTEIN KINASE STATEMENT REGARDING FEDERALLY SPONSORED REASEARCH OR DEVELOPMENT” (priority 1998, published 2003).

Molecular target: T1, PKA (Bos taurus, UniProt P00517)
T1 construct: the purified catalytic subunit of cAMP-dependent protein kinase from bovine heart was a gift; from tissue; host or cells: bovine heart (gift from Dr. William H. Fletcher)
Assay: Rates of phosphorylation of synthetic peptides by PKA
Type: biochemical, bovine
Settings: for 32P incorporated: PKA (10.5 units), 0.14 mM ATP; for 32P incorporated, %: PKA, AKRASAA taken as 100%
Source text: A. Materials. γ-PAK was purified from rabbit reticulocytes to apparent homogeneity by chromatography on DEAE-cellulose, SP-Sepharose, protamine agarose, and FPLC on Mono S and Mono Q. Histone I (type IIIS), mixed histone (type IIAS), trypsin (L-1-tosylamido-2-phenylethyl chloromethyl ketone treated), soybean trypsin inhibitor, bovine serum albumin (fatty acid free), and myelin basic protein were purchased from Sigma. Purified histones 2B and 4 were purchased from Boehringer-Mannheim. Myosin light chain from rabbit skeletal muscle was a gift from Dr. James Stull, University of Texas Southwestern Medical Center, Dallas, Tex.; rat prolactin was provided by Dr. Ameae Walker, University of California, Riverside, Calif.; and the purified catalytic subunit of cAMP-dependent protein kinase from bovine heart was a gift from Dr. William H. Fletcher, J. L. Pettis Memorial V. A. Hospital, Loma Linda, Calif. Protein kinase C was purified from bovine brain according to the procedure of Walton et al. [Walton, G. M., et al., Anal Biochem., 161:425-437 (1987)], with modifications [Venema, R. C., et al., J. Biol. Chem., 266:5298-5302 (1991)]. The clone for GST-Cdc42 was generously provided by Dr. Channing Der, University of North Carolina, Chapel Hill, N.C. Cellulose thin-layer chromatography sheets were from Kodak.
Reactions with PKA (10.5 units) were carried out under the same conditions as with γ-PAK except that 0.14 mM ATP was used. Reactions with PKC (3.4 units) were performed as with PKA, with the addition of 0.4 mM CaCl2, phosphatidylinositol (15 μg/mL), phosphatidylserine (15 μg/ mL), and 1,2-diolein (3 μg/mL), as described [Tuazon, P. T., et al., (1989), supra]. A unit of PKA or PKC is defined as the amount of enzyme that incorporates 1 pmol of phosphate/min at 30° C. into histone IIAS or histone 1, respectively.
PKA and PKC are known to require basic amino acids on the N-terminal side of the phosphorylatable serine/ threonine. To distinguish their substrate specificities from that of γ-PAK, the relative rates of phosphorylation were determined with the synthetic peptide substrates using the conditions for γ-PAK, with the addition of Ca^2+ and phospholipids for PKC. The rates shown in Table 5 are calculated with equivalent units of enzyme; the rate of phosphorylation of the peptide AKRASAA (SEQ ID NO:6) is taken as 100% for all three enzymes. As would be expected, PKA preferentially phosphorylated the peptides that contained RR or RK at the −3 and −2 positions and with […] residues or proline at the −4 and −1 positions inhibitory. PKC recognized SKR>RKS>KKS. The most notable difference between γ-PAK and PKA or PKC is the effect of acidic residues on the susceptibility of the peptide to be phosphorylated. An acidic residue in the −1 or −4 position was beneficial for γ-PAK but was detrimental for both PKA and PKC (Table 5). […] In addition, γ-PAK could not tolerate an arginine in the −3 position when lysine was in the −2 position. On the other hand, PKC and PKA phosphorylated ARKASAA (SEQ ID NO:24) much more quickly than AKRASAA (SEQ ID NO:6).

Substance	32P incorporated [pmol/unit]	32P incorporated, % [%]
AKRPSAA (C-terminal amide) [synthetic peptide with an amide C-terminal group]	10.3	215
ARKASAA (C-terminal amide) [synthetic peptide with an amide C-terminal group]	107.5	2240
ARRASAA (C-terminal amide) [synthetic peptide with an amide C-terminal group]	137.1	2856
KKRKSAA [model peptide patterned after the phosphorylation site of nucleocapsid protein NC]	19.8	412
PKRASAA (C-terminal amide) [synthetic peptide with an amide C-terminal group]		144
RKKKSAA (C-terminal amide) [synthetic peptide with an amide C-terminal group]		112
